# Reference: PubChem BioAssay AID1508586 (ICCB-Longwood Screening Facility, Harvard Medical School, 2020)
# The list shows a part of the results, in another mix than the full data. Activity calls are given as the source filed them.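 How the source made its calls: active means mean z-score across replicates of 1.96 or higher in either the MELAS or the Rieske mutant cell line; inactive means the rest.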
# Experiment: MELAS cybrid and Rieske KO viability enhancers – cell-based, MELAS cybrids, Rieske KO mouse fibroblasts, CellTiter-Glo, primary screen (AID 1508586);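 further: test concentration not given here; z relative to plate mean and SD of compound and empty wells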
# Conditions: MELAS cybrid survival, low glucose, CellTiter-Glo 48 h; active compounds read high
row,Compound,z-score
1,NC(=O)Nc1ccc([As](=O)(O)O)cc1,inactive: 0.0727
